Assay results taken from patent EP2565276A1.

Sequences of proteins named here, by UniProt entry; tags and fusion partners are left off.
UniProt P18031, whole entry C32S/C92S/C121S/C215S/L294C: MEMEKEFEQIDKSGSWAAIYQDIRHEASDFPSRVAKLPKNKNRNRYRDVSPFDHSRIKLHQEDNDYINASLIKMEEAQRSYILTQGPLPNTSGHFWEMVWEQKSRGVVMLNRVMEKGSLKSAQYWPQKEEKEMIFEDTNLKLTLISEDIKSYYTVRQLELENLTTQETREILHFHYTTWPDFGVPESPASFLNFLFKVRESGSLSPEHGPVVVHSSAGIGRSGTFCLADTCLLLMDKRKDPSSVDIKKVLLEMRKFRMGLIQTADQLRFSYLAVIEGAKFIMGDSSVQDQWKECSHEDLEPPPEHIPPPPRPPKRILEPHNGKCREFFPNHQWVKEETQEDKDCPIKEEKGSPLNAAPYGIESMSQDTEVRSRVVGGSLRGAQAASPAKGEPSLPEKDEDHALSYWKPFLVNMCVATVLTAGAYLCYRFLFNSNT
UniProt P18031, whole entry C32S/C92S/C121S/F182C/C215S: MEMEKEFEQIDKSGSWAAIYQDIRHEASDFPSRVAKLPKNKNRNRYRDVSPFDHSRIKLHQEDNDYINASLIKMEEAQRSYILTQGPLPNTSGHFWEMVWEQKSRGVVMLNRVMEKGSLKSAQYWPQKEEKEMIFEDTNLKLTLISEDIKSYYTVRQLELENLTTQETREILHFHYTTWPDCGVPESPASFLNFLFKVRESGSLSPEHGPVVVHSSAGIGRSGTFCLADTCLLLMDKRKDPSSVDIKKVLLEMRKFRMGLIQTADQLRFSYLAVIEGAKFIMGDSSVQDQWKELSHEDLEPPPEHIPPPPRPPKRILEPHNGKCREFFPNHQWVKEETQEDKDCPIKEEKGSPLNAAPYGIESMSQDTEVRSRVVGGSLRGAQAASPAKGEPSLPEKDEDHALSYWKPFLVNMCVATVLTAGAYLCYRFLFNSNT

Experiments:
acrylodan-labeled PTP1b = acrylodan-labeled PTP1b (Homo sapiens, UniProt P18031, C121S/C215S/C32S/C92S/L294C); experiment: Binding and dissociation kinetics, acrylodan emission at a single wavelength (465 nm) over time, excess unlabeled PTP1b added; details: emission at 465 nm over time; compound added first (loss of fluorescence intensity)
PTP1B = PTP1B (Homo sapiens, UniProt P18031, C121S/C215S/C32S/C92S/F182C); experiment: Fluorescence-based binding assay, acrylodan label in the WPD loop (F182C), for active site binders; details: read-out: mean Kd, ratiometric change in acrylodan emission, R = 460 nm / 515 nm

**Q.** With `CCc1oc2cc(S(=O)(=O)Nc3ccc(S(=O)(=O)Nc4nccs4)cc3)ccc2c1C(=O)c1cc(Br)c(O)c(Br)c1` as the molecule, how does the “fluorescence after subsequent addition of a large excess of unlabeled PTP1b” value (acrylodan-labeled PTP1b) read?
**A.** restored fluorescence to a higher level

**Q.** For `CC(C)(c1ccc(NS(=O)(=O)C(F)(F)F)cc1)c1ccc(C(C)(C)c2ccc(NS(=O)(=O)C(F)(F)F)cc2)cc1`, which Kd (PTP1B) is on record?
**A.** 2300 nM
